# Experimental data: PubChem BioAssay AID504614 (Sanford-Burnham Center for Chemical Genomics, 2011)
# The entries are a selection whose mix differs from that of the whole data set. Active and inactive are the calls of the source.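 The calls were made as follows: active = mean inhibition of at least 40% at 20 µM; inactive = the rest.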
# Test: apoptosome-driven caspase-3 activation blockers – biochemical, fluorescence, DEVD-Rh110, 20 µM, confirmation (AID 504614);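 also: plate controls were DMSO wells for no effect and DEVD-CHO caspase inhibitor control wells for full effect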
# Conditions: reconstituted apoptosome, caspase-3 DEVD-Rh110 fluorescence; at 20 µM; stronger effect = higher value
row,SMILES,inhibition
1,CC1=C2N=C(C=C3N=C(C(C)=C4[N-][C@@](C)([C@@H]5N=C1[C@](C)(CCC(=O)NC[C@@H](C)OP(=O)([O-])O[C@H]1[C@@H](O)[C@@H](n6cnc7cc(C)c(C)cc76)O[C@@H]1CO)[C@H]5CC(N)=O)[C@@](C)(CC(N)=O)[C@@H]4CCC(N)=O)[C@@](C)(CC(N)=O)[C@@H]3CCC(N)=O)C(C)(C)[C@@H]2CCC(N)=O.[C-]#N.[Co+3],active: 100%
2,O=[N+]([O-])c1cc([N+](=O)[O-])c(Nc2ccccn2)c([N+](=O)[O-])c1,inactive: 22%
